## Binding of CDR-mutated scFvs to a peptide of the spike HR2 region

Source: Li et al. 2023 (doi:10.1038/s41467-023-39022-2), MIT Lincoln Laboratory and A-Alpha Bio; data file from the FLAb repository.

Target peptide (SARS-CoV-2 spike, HR2 region): PDVDLGDISGINAS

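Phage display of a naive human antibody library on the peptide gave the parent. The variants were designed computationally from a first round of random CDR variants and then made and measured. Group labels follow the data file (Ctrl: baseline library sampled from a position-specific scoring matrix, with some repeated check sequences; Rand: our label for a block that the file lists under HC and that is probably the random mutants of the ten best first-round binders; GP: Gaussian process model; GPLM: also part of the Gaussian process libraries; HC: hill climbing; Gen: genetic algorithm; a sequence that several methods proposed may carry one label only). AlphaSeq pools MATa yeast showing the antibodies with MATalpha yeast showing the peptide. The frequency of each diploid, read from paired DNA barcodes, reflects how well the two displayed proteins bind. Read counts were normalised to the haploid input and turned into Kd by a linear fit to BCL2-family pairs of known affinity, for each replicate. The assay was run in six technical replicates.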

The variants keep the heavy chain, the linker and the frameworks of Ab-14 (scFv order VH, three GGGGS repeats, VL).
VH: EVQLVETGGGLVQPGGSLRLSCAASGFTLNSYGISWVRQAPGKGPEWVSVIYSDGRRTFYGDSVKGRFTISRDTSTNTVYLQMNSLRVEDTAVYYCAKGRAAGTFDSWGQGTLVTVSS
VL: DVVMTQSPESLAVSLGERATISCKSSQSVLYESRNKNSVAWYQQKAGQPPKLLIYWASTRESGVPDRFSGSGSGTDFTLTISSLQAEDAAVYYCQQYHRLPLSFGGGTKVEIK

Each variant is given by its three light chain CDRs, as the data file delimits them; those of the parent are KSSQSVLYESRNKNSVA, WASTRES, QQYHRLPLS. This list holds designs with at most six substitutions. Affinities are written as log10 Kd with Kd in nM; a lower number is a better binder. A mean of the replicates is given; it leaves out those without a signal. Where no diploid with the target was found in that replicate, the entry reads "ND": below detection, most likely a poor binder, though not proof of it. Order: sorted from the lowest average up, undetected variants last. As a blank, each scFv also met three strains without target: over all light chain designs, 4% of these pairings were detected, typically at 2.64 and seldom below 1.59. For each scFv, signals with the empty controls are counted beside the result. The authors averaged sequences with at least three values out of six and counted those with two or fewer as poor binders. Values of this round are not directly comparable with the first-round values of the same sequences.

For KIEQSQLYESRNKNSVA / NASTRES / QQYHRLPLS [GP_Gen], the assay gave -0.20, -0.56, -0.72, -0.67, -0.73, -0.29 (mean -0.53; controls 0 of 18). With KLSESVLYESRNKNNVA / DASTRES / QQYHRLPLS [GP_Gen] the result was -0.29, -0.49, -0.55, -0.56, -0.57, -0.35 (mean -0.47; controls 0 of 18). For KGSQSWLYESRNKNSVA / EASTRES / QQYHRLPLS [Ctrl], the assay gave -0.28, -0.32, -0.51, -0.60, -0.50, -0.38 (mean -0.43; controls 1 of 18). The variant KSSQGWLYESRNKNSVA / GASTRED / QQYHRLPLS [GP_HC] showed -0.29, -0.37, -0.31, -0.36, -0.41, -0.48 (mean -0.37; controls 1 of 18). The variant KISQSQLYESRNKNSVA / NASQRES / QQYHRLPLS [GP_Gen] showed -0.29, -0.34, -0.18, -0.70, -0.36, -0.21 (mean -0.35; controls 1 of 18).

The variant KLSMSVLYESRNKNSVA / NASTRES / QQYHRLPLS [GP_Gen] gave -0.26, -0.21, -0.23, -0.29, -0.43, -0.58 (mean -0.33; controls 0 of 18). The variant FLSQSVLYESRNKNSVA / NASTRES / QDYHRLPLS [GP_Gen] showed -0.24, -0.33, -0.39, -0.50, -0.31, -0.15 (mean -0.32; controls 1 of 18). For KLQQSMLYESRNKNSVA / DASTRLS / QQYHRLPLS [GP_Gen], the assay gave -0.21, -0.38, -0.29, -0.44, -0.36, -0.20 (mean -0.31; controls 0 of 18). With KFSQSVLYESRNKNSVA / NASTRED / QQYHRLPLS [GP_Gen] the result was -0.04, -0.41, -0.34, -0.42, -0.41, -0.18 (mean -0.30; controls 2 of 18). The variant KLSQSMLYESRAKNSVA / NASQRES / QQYHRLPLS [GP_Gen] showed 0.01, -0.40, -0.36, -0.51, -0.28, -0.19 (mean -0.29; controls 2 of 18).

With KFSQSVLYESRTKNSVA / NAVTRET / QQYHRLPLS [GP_HC] the result was -0.10, -0.06, -0.33, -0.43, -0.19, 0.02 (mean -0.18; controls 0 of 18). The variant KLSQSYLYESRNKNSVA / NASQRES / QQYHRLPLS [GP_Gen] gave 0.20, -0.20, -0.29, -0.12, -0.45, -0.02 (mean -0.14; controls 2 of 18). The variant KVSQSGLMESRNKNSVA / EASTRES / QQYHRLPLS [GP_HC] showed -0.06, -0.02, -0.12, -0.29, -0.16, -0.01 (mean -0.11; controls 1 of 18). With HSSQSVDYESRNKNSVA / DASTRES / QQYHRLPLS [GP_HC] the result was -0.06, -0.06, 0.00, -0.02, -0.25, 0.19 (mean -0.03; controls 0 of 18). The variant KLSQSVLYESRNKNSVA / SASTRYS / QQYHRLPLS [GP_Gen] gave 0.05, -0.33, 0.16, 0.16, -0.31, 0.19 (mean -0.01; controls 0 of 18).

The variant KFSQSELYESRNKNSVA / NASYRES / QQYHRLPLS [GP_Gen] showed 0.00, -0.01, 0.00, -0.13, 0.27, 0.11 (mean 0.04; controls 2 of 18). The variant KLSQSVDYESRNKNSVA / DASTRCS / QQYHRLPLS [GP_Gen] showed 0.23, 0.11, 0.03, -0.16, 0.03, 0.25 (mean 0.08; controls 0 of 18). With KSSQSWLYEAPNKNSVA / GASPRDS / QQYHRLPLS [Rand] the result was -0.36, 0.24, 0.02, -0.01, -0.20, 1.06 (mean 0.12; controls 0 of 18). For KSSGSVLYESRNKNSVA / GASTRES / QQYHRLPLS [Ctrl], the assay gave 0.37, 0.05, 0.06, 0.09, 0.07, 0.13 (mean 0.13; controls 2 of 18). The variant KSSQSVPMESRNKNSVA / NASTRES / QQYHRLPLS [GP_HC] showed 0.28, 0.24, 0.07, -0.06, 0.19, 0.19 (mean 0.15; controls 2 of 18).

The variant KSSQSAAYESRNKNSVA / GASTRES / QQYHRLPLS [GP_HC] showed 0.25, 0.26, 0.02, 0.13, 0.12, 0.23 (mean 0.17; controls 0 of 18). With KSGGGVLYESRNKNSVA / GASTRES / QQYHRLPLS [GPLM_HC] the result was 0.29, 0.08, 0.25, 0.10, 0.14, 0.22 (mean 0.18; controls 2 of 18). The variant KLSQSWLYESRNKNSVA / NASTRSS / QQYHRLPLS [GP_Gen] gave 0.18, 0.55, 0.34, -0.06, 0.19, -0.02 (mean 0.20; controls 1 of 18). The variant KFSQWVLYEDRTKNSVA / NASTRES / QQYHRLPLS [GP_HC] gave 0.59, 0.46, 0.48, 0.17, 0.43, 0.38 (mean 0.42; controls 2 of 18). For KASQRVLYESRNKNSVA / AASTRVS / QQYHRLPLS [Ctrl], the assay gave 0.62, 0.28, 0.51, 0.72, 0.28, 0.55 (mean 0.49; controls 0 of 18).

For KSSQSVLYESRNKNSVA / NAEQRES / QQYHRLPLS [Ctrl], the assay gave 0.78, 0.92, 0.12, 0.25, 0.56, 0.41 (mean 0.50; controls 0 of 18). The variant KSSISYLYESRNENSVA / EASTREK / QQYHRLPLS [GP_HC] gave 1.14, 0.70, -0.06, 0.41, 0.53, 0.45 (mean 0.53; controls 0 of 18). With KISQSFLYESRNKNSVA / WASTRES / QQYHRLPLS [Ctrl] the result was 0.91, 0.62, 0.44, 0.51, 0.77, 0.33 (mean 0.60; controls 0 of 18). For KMSQSVLYESRNKNSVA / WASTREV / QQYHRLPLS [Ctrl], the assay gave 0.43, 0.76, 0.45, 0.41, 0.68, 1.12 (mean 0.64; controls 0 of 18). With KSSQSVLYESTNKNSVA / EASTREP / QQCHRLPLS [Ctrl] the result was 0.97, 0.62, 0.71, 0.57, 1.00, 0.72 (mean 0.77; controls 1 of 18).

The variant KLSMSVLYESRNKNSVA / NASTRMS / QQYHRLPLS [GP_Gen] showed 0.56, 0.78, 0.84, 0.62, 0.71, 1.42 (mean 0.82; controls 0 of 18). For KLRQSTLYESRNKNSVA / LASTRES / QQYHRLPLS [GP_HC], the assay gave ND, 1.74, 0.40, 0.92, 0.41, 1.34 (mean 0.96; controls 0 of 18). For KSQQGVLYESRNKNHVA / GASTRES / QQYHRLPLS [GP_HC], the assay gave ND, 1.52, 0.63, 0.65, 1.53, 0.99 (mean 1.06; controls 1 of 18). For KMSQSVLYESTNKNSVA / GASTRES / QQYHRLPLS [Ctrl], the assay gave ND, ND, ND, ND, ND, 1.75 (controls 0 of 18). With KSSQRVLYESRNKISVA / WASTRES / QQYHRLPLS [Ctrl] the result was ND, ND, ND, 3.25, 1.00, ND (mean 2.12; controls 1 of 18).

The variant KSSQSVLYESQNKNSVA / WASTRES / QQYHRDPLS [Ctrl] gave ND, ND, ND, 2.38, ND, 2.30 (mean 2.34; controls 0 of 18). For KVSMSVLYESRNKNSVA / WASTRES / QQYHRLPLS [Ctrl], the assay gave ND, 2.38, 1.42, 2.26, 2.42, 3.33 (mean 2.36; controls 2 of 18). The variant KSSQSVLYESRNKNSVA / WASTRTS / QTYHRLPLS [Ctrl] showed ND, ND, ND, 2.37, 2.86, ND (mean 2.61; controls 1 of 18). The variant KLSQSVLYESRNENSVA / WASTRES / QQYKRYPLS [Ctrl] gave ND, ND, ND, ND, 4.09, 3.18 (mean 3.63; controls 0 of 18). With KCSQSVLNESRYKNSVA / WASTRES / GQYKRLPLS [Ctrl] the result was ND, ND, ND, ND, ND, ND (controls 0 of 18).

With KSSQSVTYESRNKNSVA / WASTRES / QQYHRLSLD [Ctrl] the result was ND, ND, ND, ND, ND, ND (controls 0 of 18). With KNSQSVLYEERNKNSVA / WDSTRES / QQYHRLPLS [Ctrl] the result was ND, ND, ND, ND, ND, ND (controls 0 of 18). The variant KSSQSVLPESRNKNSVA / WKSIRES / QQYHSLPNS [Ctrl] showed ND, ND, ND, ND, ND, ND (controls 0 of 18). The variant KSSQSVLYESRNKNSVA / WASTRES / QQYHRLPIA [Ctrl] showed ND, ND, ND, ND, ND, ND (controls 1 of 18). The variant KSSQSVLYESTEMNSVA / MASTHES / QQYHRLPLS [Ctrl] gave ND, ND, ND, ND, ND, ND (controls 0 of 18).

A selection of 5 entries from above:

{"CDR-L1": "KSSQSVLYESRNKNSVA", "CDR-L2": "NAEQRES", "CDR-L3": "QQYHRLPLS", "group": "Ctrl", "log10 Kd, replicates": "0.78, 0.92, 0.12, 0.25, 0.56, 0.41", "log10 Kd (nM), mean": "0.50", "control signals": "0 of 18"}
{"CDR-L1": "KSSQSWLYEAPNKNSVA", "CDR-L2": "GASPRDS", "CDR-L3": "QQYHRLPLS", "group": "Rand", "log10 Kd, replicates": "-0.36, 0.24, 0.02, -0.01, -0.20, 1.06", "log10 Kd (nM), mean": "0.12", "control signals": "0 of 18"}
{"CDR-L1": "KSGGGVLYESRNKNSVA", "CDR-L2": "GASTRES", "CDR-L3": "QQYHRLPLS", "group": "GPLM_HC", "log10 Kd, replicates": "0.29, 0.08, 0.25, 0.10, 0.14, 0.22", "log10 Kd (nM), mean": "0.18", "control signals": "2 of 18"}
{"CDR-L1": "KSSQSAAYESRNKNSVA", "CDR-L2": "GASTRES", "CDR-L3": "QQYHRLPLS", "group": "GP_HC", "log10 Kd, replicates": "0.25, 0.26, 0.02, 0.13, 0.12, 0.23", "log10 Kd (nM), mean": "0.17", "control signals": "0 of 18"}
{"CDR-L1": "KSSGSVLYESRNKNSVA", "CDR-L2": "GASTRES", "CDR-L3": "QQYHRLPLS", "group": "Ctrl", "log10 Kd, replicates": "0.37, 0.05, 0.06, 0.09, 0.07, 0.13", "log10 Kd (nM), mean": "0.13", "control signals": "2 of 18"}